Tested on: Vero CCL-81 cells

## COc1ccc2c3c(c4cc(OC)c(OC)cc4c2c1)C[C@H]1CCCCN1C3 [cryptopleurin]
  Selectivity Index (SI): 6
